Laboratory results as given in patent US8435949B2, “Pheromones and the luteinizing hormone for inducing proliferation of neural stem cells and neurogenesis” (Stem Cell Therapeutics Corp., priority 2004, dated 2013).

Tests used:
[1] = test system: neural stem cells in the SVZ; assay: Infusion into the lateral ventricle by osmotic pump; BrdU positive (proliferating) cells counted in the SVZ; format: in vivo, mice; conditions: for proliferation in the SVZ as compared to the control group: LH or hCG infusion vs vehicle alone, Example 5, present tense
Experimental: (§1) To examine the number of progenitor cells in the SVZ after treatment, bromodeoxyuridine (BrdU) injections were used to label these cells. Animals received BrdU injections (120 mg/kg, i.p., dissolved in 0.007% NaOH in phosphate buffer) every 2 hours for a 10 hour period. Each injection of BrdU will only label proliferating cells in the &phase and the purpose of having a series of BrdU injection is to ensure the continuing availability of BrdU for full incorporation (Morshead and van der Kooy, 1992).
The sections were post-fixed with acetone for 30 seconds at room temperature and washed with PBS. For BrdU staining, the tissue was treated with 1M HCl for 22 minutes at 60° C. to denature cellular DNA. Sections were then incubated for 24 hours at room temperature in primary antibody (rat anti-BrdU, 1:50) diluted in 0.3% PBS-T containing 10% NGS, washed with PBS, and then incubated with goat-anti-rat secondary antibodies conjugated to biotin (1:200) for 1 hour at room temperature. After rinsing with ddH2O, sections were mounted with Fluorosave, because staining was visualized with CY3-Streptavodin, and viewed with a Zeiss Axiophot fluorescence microscope.
A one-in-ten series of coronal sections (14 μm) from the rostral tip of the lateral ventricle to caudal most aspect of the ventricles (total 10 sections) were collected. BrdU-positive cells were then counted in the defining ependymal-subependymal layer.
(§2) Sixteen 8-week-old CD-1 mice (Charles-River, Laval, Quebec, Canada) were anesthetized with sodium pentobarbital (120 mg/kg, i.p.) and implanted with osmotic pumps (Alzet 1007D; Alza, Palo Alto, Calif.). The cannulas were located in the right lateral ventricle (anteroposterior +0.2 mm, lateral +0.8 mm to bregma, and dorsoventral 2.5 mm below dura with the skull leveled between lambda and bregma). LH (33 μg/ml human LH derived from the pituitary; the National hormone and peptide program, University of California Los Angeles, Calif., USA) was dissolved in 0.9% saline containing 1 mg/ml mouse serum albumin (Sigma). Each animal was infused for 6 d with either vehicle alone or LH at a flow rate of 0.5 μl/hr, resulting in a delivery of 400 ng/d of LH.

[2] = test system: neural stem cells; assay: Neural stem cell culture: secondary sphere formation from dissociated primary spheres (self-renewal); format: cell-based, mice
Experimental: Generation and differentiation of spheres from embryonic and adult forebrain were performed as described previously with minor modifications (Reynolds and Weiss, 1992; Reynolds et al., 1992). Briefly, striato-pallidum complexes were removed from mouse embryos at E14 and collected into PBS containing 0.6% glucose, penicillin (50 U/ml), and streptomycin (50 U/ml; both from Life Technologies, Gaithersburg, Md.) and then transferred into the standard culture medium composed of DMEM-F-12 (1:1), glucose (0.6%), glutamine (2 mM), sodium bicarbonate (3 mM), HEPES buffer (5 mM), insulin (25 μg/ml), transferrin (100 μg/ml), progesterone ([…]), putrescine (60 μM), and selenium chloride (30 nM) (all from Sigma, St. Louis, Mo., except glutamine from Life Technologies) For adult neural stem cell cultures, medial and lateral portions of the lateral ventricle subependyma from the adult brain were dissected from both hemispheres, pooled together, subsequently cut into 1 mm^2 fragments, and transferred into the standard culture medium containing 1.33 mg/ml trypsin, 0:67 mg/ml hyaluronidase, and 0.2 mg/ml kynurenic acid (all from Sigma). After 30 min at 37° C., the tissue was transferred to the standard culture medium containing 0.7 mg/ml trypsin inhibitor (Roche Diagnostics, Laval, Quebec, Canada). Tissue pieces were mechanically dissociated with micropipettes. Cells were seeded at various densities into the standard culture medium, which also contained EGF (20 ng/ml human recombinant; Peprotech, Rocky Hill, N.J.). Cells were cultured for 7 days in vitro (DIV) and formed floating cell clusters (spheres). All the mice for culture experiments were killed by cervical dislocation.
To confirm that LH stimulates proliferation of neural stem cells, neural stem cell cultures were established as described in Materials and Methods. Primary spheres were dissociated and plated in the presence of EGF or EGF plus LH (30 nM) at limited density to allow formation of secondary spheres.

[3] = human use; intramuscular injection; cited from earlier work
[4] = test system: proliferating cells in the hippocampus; assay: Infusion by osmotic pump; proliferating cells in the hippocampus; format: in vivo, mice; conditions: both gender; hCG infusion; Example 4, present tense
Experimental: as §1, §2
HCG has the same activity as LH.

[5] = test system: doublecortin or NeuN positive cells in the SVZ or olfactory bulb; assay: Infusion by osmotic pump; neurogenesis by neuron marker (doublecortin or NeuN) positive cells; format: in vivo; conditions: mice infused with hCG; Example 4, present tense
[6] = test system: proliferating cells in the forebrain SVZ; assay: Single intramuscular injection of hCG; BrdU positive cells in the forebrain SVZ; format: in vivo, CD-1 mice
Experimental: Six to eight week old female CD-1 mice received a single intramuscular injection of 5.0 USP units of recombinant hCG (Sigma Catalog Number C 6322) in a 0.05 ml volume (diluted in saline). Control mice received a single injection of saline alone. The mice then received 6 injections of BrdU (120 mg/kg), one every two hours, beginning two hours after the hCG injection. The mice were sacrificed thirty-minutes after the last BrdU injection, perfused transcardially with 4% paraformaldehyde; and the tissue was processed for cryosectioning. Brains were sectioned serially at 14 microns onto two sets of seven slides each, 12 sections on each slide. The number of BrdU positive cells was counted in the forebrain SVZ on one slide for each of the control and hCG injected animals. The following data are the average numbers of BrdU+ cells per section in the control (saline only) and hCG-injected mice, respectively.

Substance: LH: human LH derived from the pituitary; the National hormone and peptide program
- proliferation in the SVZ as compared to the control group [1]: increases proliferation
- neural stem cell proliferation in the SVZ and hippocampus ([1]; both females and males, summary statement): sufficient to induce neural stem cell proliferation
- proliferation (number of BrdU positive cells) in the SVZ ([1]; female mice, 2-day or 6-day infusion of LH vs vehicle (FIGS. 7A and 7B)): increase proliferation significantly
- proliferation (number of BrdU positive cells) in the SVZ ([1]; male mice, 2-day infusion of LH vs vehicle (FIG. 8)): increase proliferation significantly
- effectiveness on neural stem cells isolated from female vs male mice ([2]; LH 30 nM with EGF): more effective on the neural stem cells isolated from female mice
- self-renewal of neural stem cells in culture ([2]; LH 30 nM with EGF): capable of increasing self-renewal

Substance: Pregnyl: injectable, highly purified preparation of human chorionic gonadotropin obtained from the urine of pregnant women
- maximal safe dose [3]: 10,000 USP units per day

Substance: Profasi: human chorionic gonadotropin (hCG), administered intramuscularly (Table 1); b178 calls it LH
- maximal safe dose [3]: 10,000 USP units per day

Substance: hCG: recombinant hCG: choriogonadotropin alfa in Examples 4-5; Sigma Catalog Number C 6322 in Example 6
- proliferation in the SVZ as compared to the control group [1]: increases proliferation
- proliferation in the SVZ ([1]; male and female mice infused with recombinant hCG (choriogonadotropin alfa) vs vehicle, Example 4, present tense): significantly increases proliferation
- proliferating cells in the hippocampus [4]: increase significantly
- number of doublecortin or NeuN positive cells in the SVZ or olfactory bulb [5]: significantly higher
- number of secondary spheres ([2]; EGF plus choriogonadotropin alfa vs EGF, neural stem cells from male or female animals, Example 4, present tense): significantly increases the number of secondary spheres
- average number of BrdU+ cells per section in the forebrain SVZ ([6]; female CD-1 mice, single intramuscular injection of 5.0 USP units, n=4, p<0.02 vs saline 163±6): 206±13 BrdU+ cells per section
- increase of proliferation in the forebrain SVZ ([6]; single low dose hCG injection vs saline): 26%
